Data: patent US20070184519A1, “Peptides, polypeptides, and proteins of reduced immunogenicity and methods for their production” (priority 2003, published 2007)

The chains behind the UniProt entries cited, without tags or fusion partners. Residues count along the entry.
UniProt P01920, 33-261: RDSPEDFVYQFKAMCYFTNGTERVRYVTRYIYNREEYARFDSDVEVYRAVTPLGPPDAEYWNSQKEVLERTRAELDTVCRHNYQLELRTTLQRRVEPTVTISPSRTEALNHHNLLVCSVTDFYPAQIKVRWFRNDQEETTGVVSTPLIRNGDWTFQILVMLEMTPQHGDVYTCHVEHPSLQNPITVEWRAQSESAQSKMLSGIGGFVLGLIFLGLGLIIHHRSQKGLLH

What was measured:
DRB1*0101 = target: T1, DRB1*0101 (Homo sapiens, UniProt P01903+P01911, A100R/D57E/F55L/F60I/F76Y/I96L/L162R/M171V/P40L/Q125E/R42F/V115G/Y59C); test: Class II peptide-binding assay DRB1*0101 (DR1)
T1 construct: Epstein-Barr virus (EBV) transformed homozygous cell lines were used as sources of human HLA Class II molecules; endogenous in cells; host or cells: LG2 (EBV-transformed homozygous B cell line)

DRB1*0401 = target: T2, DRB1*0401 (Homo sapiens, UniProt P01903+P01911, A100K/A169T/F76Y/I96L/K127E/L162R/M171V/N62H/P40V/Q125Y/R42H/S133A/S149N/S66Y/V115G/V209L/W38E); test: Class II peptide-binding assay DRB1*0401 (DR4w4)
T2 construct: Epstein-Barr virus (EBV) transformed homozygous cell lines were used as sources of human HLA Class II molecules; endogenous in cells; host or cells: PREISS (EBV-transformed homozygous B cell line)

DRB1*0404 = target: T3, DRB1*0404 (Homo sapiens, UniProt P01903+P01911, A100R/A169T/F76Y/I96L/K127E/L162R/M171V/N62H/P40V/Q125Y/R42H/S133A/S149N/S66Y/V209L/W38E); test: Class II peptide-binding assay DRB1*0404 (DR4w14)
T3 construct: Epstein-Barr virus (EBV) transformed homozygous cell lines were used as sources of human HLA Class II molecules; endogenous in cells; host or cells: BIN40 (EBV-transformed homozygous B cell line)

DRB1*0405 = target: T4, DRB1*0405 (Homo sapiens, UniProt P01903+P01911, A100R/A169T/D86S/F76Y/I96L/K127E/L162R/M171V/N62H/P40V/Q125Y/R42H/S133A/S149N/S66Y/V115G/V209L/W38E); test: Class II peptide-binding assay DRB1*0405 (DR4w15)
T4 construct: Epstein-Barr virus (EBV) transformed homozygous cell lines were used as sources of human HLA Class II molecules; endogenous in cells; host or cells: KT3 (EBV-transformed homozygous B cell line)

DRB1*0802 = target: T5, DRB1*0802 (Homo sapiens, UniProt P01903+P01911, A100R/A103L/A169T/F76Y/H45Y/I96F/K41T/L162R/M171V/P40S/Q125H/Q178H/Q39Y/Q99D/R218S/R42G/S66Y/V115G/W38E); test: Class II peptide-binding assay DRB1*0802 (DR8w2)
T5 construct: Epstein-Barr virus (EBV) transformed homozygous cell lines were used as sources of human HLA Class II molecules; endogenous in cells; host or cells: OLL (EBV-transformed homozygous B cell line)

DRB1*0901 = DRB1*0901 (Homo sapiens, UniProt P01903+P01911, A100R/A103E/D57H/D86V/F55Y/F60I/F76Y/I96F/K127E/L162R/M171V/P40D/Q125H/Q99R/R33Q/R42F/S133A/S66N/T210M/V115G/W38K/Y107V/Y59G/Y89S); test: Class II peptide-binding assay DRB1*0901 (DR9)
DRB1*1101 = target: T6, DRB1*1101 (Homo sapiens, UniProt P01903+P01911, A100R/A169T/A87E/I96F/K41T/L162R/M171V/P40S/Q125H/Q178H/Q39Y/Q99D/R42S/S66Y/T262R/V115G/W38E); format: binding
T6 construct: Epstein-Barr virus (EBV) transformed homozygous cell lines were used as sources of human HLA Class II molecules; endogenous in cells; host or cells: SWEIG (EBV-transformed homozygous B cell line)

DRB1*1302 = target: T7, DRB1*1302 (Homo sapiens, UniProt P01903+P01911, A100E/A169T/K41T/L162R/M171V/P40S/Q125H/Q178H/Q39Y/Q99D/R42S/S66N/T262R/V115G/W38E/Y61H); test: Class II peptide-binding assay DRB1*1302 (DR6w19)
T7 construct: Epstein-Barr virus (EBV) transformed homozygous cell lines were used as sources of human HLA Class II molecules; endogenous in cells; host or cells: HO301 / H0301 (EBV-transformed homozygous B cell line)

DRB1*0701 = target: T8, DRB1*0701 (Homo sapiens, UniProt P01903+P01911, A100R/A102G/A103Q/D57E/D86V/E43K/F76Y/K127E/L162R/M171V/P40G/Q125H/Q99D/R33Q/R42Y/R54Q/S133A/S66F/T210M/V115G/Y107V/Y59L/Y89S); test: Class II peptide-binding assay DRB1*0701 (DR7)
T8 construct: Epstein-Barr virus (EBV) transformed homozygous cell lines were used as sources of human HLA Class II molecules; endogenous in cells; host or cells: PITOUT (EBV-transformed homozygous B cell line)

DRB1*1501 = target: T9, DRB1*1501 (Homo sapiens, UniProt P01903+P01911); test: Class II peptide-binding assay DRB1*1501 (DR2w2b)
T9 construct: expressed in transfected cells; host or cells: transfected fibroblasts L466.1

DQB1*0301 = DQB1*0301 (Homo sapiens, UniProt P01909+P01920); test: Class II peptide-binding assay DQB1*0301
DRB1*0301 = target: T10, DRB1*0301 (Homo sapiens, UniProt P01903+P01911, A100K/A102G/A103R/A169T/F55Y/I96L/K41T/L162R/M171V/P40S/Q125H/Q178H/Q39Y/R42S/S66N/T106N/T262R/W38E/Y61H); test: Class II peptide-binding assay DRB1*0301 (DR3); details: IFNb 15-mer peptides, Table 5D
T10 construct: Epstein-Barr virus (EBV) transformed homozygous cell lines were used as sources of human HLA Class II molecules; endogenous in cells; host or cells: MAT (EBV-transformed homozygous B cell line)

[1] = inhibition of radiolabeled probe binding, — read as no appreciable binding

IC50 (DRB1*0405; IFNb 15-mer peptides, Table 5D) [µM]	IC50 (DRB1*0701; IFNb 15-mer peptides, Table 5D) [µM]	IC50 (DRB1*1101; IFNb 15-mer peptides, Table 5D) [µM]	IC50 (DRB1*1501; IFNb 15-mer peptides, Table 5D) [nM]	Structure (SMILES)	IC50 (DRB1*0101) [µM]	IC50 (DRB1*0404) [µM]	IC50 (DRB1*0405) [µM]	IC50 (DRB1*0802) [µM]	IC50 (DRB1*0901) [µM]	IC50 (DRB1*1101) [µM]	IC50 (DRB1*1302) [µM]	IC50 (DRB1*1501) [nM]	other results
				CC(C)C[C@H](NC(=O)[C@H](C)NC(=O)[C@H](CCCNC(=N)N)NC(=O)[C@H](CC(C)C)NC(=O)[C@H](CC(C)C)NC(=O)[C@@H](NC(=O)[C@@H](NC(=O)[C@H](CC(C)C)NC(=O)[C@H](CO)NC(=O)[C@H](CCCNC(=N)N)NC(=O)[C@H](CC(N)=O)NC(=O)CN)[C@@H](C)O)[C@@H](C)O)C(=O)NCC(=O)N[C@@H](C)C(=O)N[C@@H](CCC(N)=O)C(=O)O	0.025	0.048	3.71	0.025	0.326	0.029	5.25		IC50 (DRB1*0401): 0.215 µM
				CC[C@H](C)[C@H](NC(=O)[C@@H](NC(=O)[C@H](CCCCN)NC(=O)[C@@H](N)Cc1ccc(O)cc1)[C@@H](C)O)C(=O)N[C@@H](C)C(=O)N[C@@H](Cc1ccc(O)cc1)C(=O)N[C@@H](CC(=O)O)C(=O)N[C@@H](CCC(=O)O)C(=O)N[C@@H](CCC(=O)O)C(=O)N[C@@H](C)C(=O)N[C@@H](CCCNC(=N)N)C(=O)N[C@@H](CCCNC(=N)N)C(=O)O	> 20	> 20	> 2.5	> 20	> 10	> 20	> 10	> 20000	IC50 (DRB1*0701): > 20 µM; IC50 (DQB1*0301): > 20 µM
5.5	6.4	19.3	7340	CC(C)C[C@H](NC(=O)[C@H](CCCCN)NC(=O)[C@H](CCC(=O)O)NC(=O)[C@H](CCC(=O)O)NC(=O)[C@H](CC(C)C)NC(=O)[C@@H](NC(=O)[C@@H](NC(=O)[C@H](CCCCN)NC(=O)[C@H](CC(C)C)NC(=O)[C@H](Cc1c[nH]cn1)NC(=O)[C@@H](N)CC(N)=O)[C@@H](C)O)C(C)C)C(=O)N[C@@H](CCC(=O)O)C(=O)N[C@@H](CCCCN)C(=O)N[C@@H](CCC(=O)O)C(=O)N[C@@H](CC(=O)O)C(=O)O [NHLKTVLEEKLEKED]									IC50 (DRB1*0101; IFNb 15-mer peptides, Table 5D): 6.1 µM; IC50 (DRB1*0301): 3.87 µM
17.6	27.7	6.8	17100	CC[C@H](C)[C@H](NC(=O)[C@H](CCC(=O)O)NC(=O)[C@H](CCC(=O)O)NC(=O)[C@@H]1CCCN1C(=O)[C@@H](NC(=O)[C@H](CC(=O)O)NC(=O)[C@H](Cc1ccccc1)NC(=O)[C@H](CC(N)=O)NC(=O)[C@H](CCCNC(=N)N)NC(=O)[C@H](CCCNC(=N)N)NC(=O)[C@H](CC(=O)O)NC(=O)[C@H](CCCCN)NC(=O)[C@H](CC(C)C)NC(=O)[C@@H](N)CS)[C@@H](C)CC)C(=O)N[C@@H](CCCCN)C(=O)O									IC50 (DRB1*0401; IFNb 15-mer peptides, Table 5D): 26.2 µM; IC50 (DRB1*1302; IFNb 15-mer peptides, Table 5D): 17 µM
				CC[C@H](C)[C@H](NC(=O)[C@H](CO)NC(=O)[C@H](C)NC(=O)[C@H](CO)NC(=O)[C@@H](NC(=O)[C@H](CCCCN)NC(=O)[C@H](CO)NC(=O)[C@@H]1CCCN1C(=O)[C@H](Cc1ccccc1)NC(=O)[C@H](C)NC(=O)[C@@H](NC(=O)[C@H](CO)NC(=O)[C@H](CCC(N)=O)NC(=O)[C@H](CS)NC(=O)[C@@H](NC(=O)[C@@H](NC(=O)[C@@H](N)Cc1c[nH]c2ccccc12)[C@@H](C)O)[C@@H](C)O)[C@@H](C)CC)[C@@H](C)O)C(=O)NCC(=O)N[C@@H](CO)C(=O)N[C@@H](CC(C)C)C(=O)O			2.55	3.05	1.72			556	
				CC[C@H](C)[C@H](NC(=O)CNC(=O)[C@H](CCC(=O)O)NC(=O)[C@H](CCC(=O)O)NC(=O)[C@H](CC(C)C)NC(=O)[C@H](CC(=O)O)NC(=O)[C@H](CCCCN)NC(=O)[C@H](CC(C)C)NC(=O)[C@@H](N)CC(C)C)C(=O)N[C@@H](CCC(N)=O)C(=O)N[C@H](C(=O)N[C@@H](CC(C)C)C(=O)N[C@@H](CCSC)C(=O)NCC(=O)N[C@@H](CCCNC(=N)N)C(=O)O)[C@@H](C)O									IC50 (DRB1*0101; [1]): 7.28 µM; IC50 (DRB1*0401; [1]): 7.31 µM; IC50 (DRB1*0404; [1]): 2.06 µM; IC50 (DRB1*0405; [1]): 10.6 µM; IC50 (DRB1*0901; [1]): 23.4 µM; IC50 (DRB1*1101; [1]): 13.7 µM; IC50 (DRB1*1302; [1]): 21.8 µM; IC50 (DRB1*1501; [1]): 18900 nM

Where two headings read alike, the source gives them in different places.
